This is a selection: effects in other tests are not listed, and their absence says nothing.
Columns and labels:
Format in all cases: physicochemical
[1] = Headspace above the washing powder: relative partition parameter (SPME-GC); conditions: log of amount in headspace relative to amount in washing powder; 0.5% odorant mixture, SPME 15 min
[2] = Headspace above the wet washed hair: relative partition parameter headspace/shampoo (SPME-GC); conditions: log of amount in headspace above wet washed hair relative to amount in shampoo; 1% odorant mixture, 3 h standing, SPME 15 min
[3] = Headspace above the soap bar: relative partition parameter (SPME-GC); conditions: log of amount in headspace relative to amount in soap; 1.2% odorant mixture, grated soap, SPME 15 min

## Musk, xylene
[1]
  Activity (logarithmic partition parameter above washing powder): −2.764
[2]
  Activity (logarithmic partition parameter above wet hair): −2.974
[3]
  Activity (logarithmic partition parameter above soap): −2.397

Source: patent US6741954B2, “Selection method for odorants” (Symrise GmbH & Co. KG, priority 2000, dated 2004)
